Patent publication US8575168B2, “Compounds and compositions as modulators of GPR119 activity” (IRM LLC, priority 2009, dated 2013)
pEC50: −log10 of the molar value.

Chains of the proteins cited; added tags and fusions are not shown.
UniProt Q8TDV5, whole entry: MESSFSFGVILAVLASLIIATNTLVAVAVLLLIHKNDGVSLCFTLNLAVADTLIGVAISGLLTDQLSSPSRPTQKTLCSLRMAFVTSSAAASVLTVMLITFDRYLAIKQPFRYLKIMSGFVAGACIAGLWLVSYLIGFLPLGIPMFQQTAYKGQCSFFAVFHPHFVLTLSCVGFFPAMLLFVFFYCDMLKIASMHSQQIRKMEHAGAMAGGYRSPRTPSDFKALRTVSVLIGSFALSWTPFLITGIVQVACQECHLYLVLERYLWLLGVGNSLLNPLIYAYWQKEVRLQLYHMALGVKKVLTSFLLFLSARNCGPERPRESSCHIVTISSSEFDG

Target: human GPR119 (Homo sapiens, UniProt Q8TDV5)
Assay: Cyclic AMP Assay in Stable Cell Line (HTRF)
Details: read-out: hGPR119 EC50, Flp-In-CHO-hGPR119 cells, intracellular cAMP, 30 minutes at 37° C., 1 mM IBMX
Description: Flp-In-CHO cells (Invitrogen, Cat. #R758-07) are maintained in Ham's F12 medium supplemented with 10% fetal bovine serum, 1% antibiotic mixture and 2 mM L-glutamine. The cells are transfected with a DNA mixture containing human GPR119 in pcDNA5/FRT vector and the pOG44 vector (1:9) using Fugene6 (Roche), according to the manufacturer's instruction. After 48 hours, the medium is changed to medium supplemented with 400 μg/ml hygromycin B to initiate the selection of stably transfected cells.
To test the activity of compounds of the invention, Flp-In-CHO-hGPR119 cells are harvested and resuspended in DMEM plus 3% lipid-depleted fetal bovine serum. Forth μl of cells are plated in 384 well plates at a density of 15,000 cells/well. IBMX (3-isobutyl-1-methyl-xanthine) is added to the cells to a final concentration of 1 mM, followed by the addition of 500 nl of the compound to be tested. The cells are incubated at 37° C. for 30 minutes. Equal volume (20 μl) of the HTRF reagents, anti-cAMP-Cryptate and cAMP-XL665, are added to the cells. The plates are incubated at room temperature for 1 hour and read on a HTRF reader according to the manufacturer's instruction.

| Structure (SMILES) | pEC50 |
| --- | --- |
| CS(=O)(=O)N1CCN(c2cnc(OC3CCN(Cc4nc(C(F)(F)F)cs4)CC3)cn2)CC1 | 6.35 |
| CC(c1ccc(C(F)(F)F)cc1)N1CC(Oc2c(F)cc(C3CCN(S(C)(=O)=O)CC3)cc2F)C1 (centres unmarked) | 7.92 |
